Measured values taken from PMC8938454, “RUFY3 links Arl8b and JIP4-Dynein complex to regulate lysosome size and positioning” (Nature Communications, 2022).

Target: T1, His-Arl8b (recombinant) (human, UniProt Q9NVJ2 1-186)
T1 construct: also called purified His-Arl8b; source: E. coli BL21, purified (His60 Ni Superflow resin)
T1 sequence (looked up): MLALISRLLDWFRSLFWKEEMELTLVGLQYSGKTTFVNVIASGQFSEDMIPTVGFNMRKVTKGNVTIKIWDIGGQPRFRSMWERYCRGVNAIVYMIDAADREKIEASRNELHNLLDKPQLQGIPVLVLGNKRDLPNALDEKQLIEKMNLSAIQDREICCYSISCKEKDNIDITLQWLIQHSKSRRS
Test: pull-down; 5 µg GST or GST-tagged RUFY3 proteins on glutathione beads, blocked with 5% BSA, incubated with 5 µg purified His-Arl8b at 4 °C for 1 h in TAP lysis buffer; blot with anti-His
Details: both partners purified

B1: GST-tagged-RUFY3 (441–561) (domain or fragment, human, UniProt Q7L099-3 441-561, looked up)
chain: KQLEQRLRQAERSRQSAELDNRLFKQDFGDKINSLQLEVEELTRQRNQLELELKQEKERRLQNDRSIPGRGSQKSESKMDGKHKMQEENVKLKKPLEESHRLQPHPMDEQDQLLLSEKPQL
notes: source: E. coli BL21, purified (glutathione resin)
binding result: binds
